# Antibody variant affinities, Ab-14 light chain, assay 1

All variants were tested on one target, the spike HR2 peptide PDVDLGDISGINAS (SARS-CoV-2).

The variants keep the heavy chain, the linker and the frameworks of Ab-14 (scFv order VH, the linker GGGGSGGGGSGGGGS, VL).
VH: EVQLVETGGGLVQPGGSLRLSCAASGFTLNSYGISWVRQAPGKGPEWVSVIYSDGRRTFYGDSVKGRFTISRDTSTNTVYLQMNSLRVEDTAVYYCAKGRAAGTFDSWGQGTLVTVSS
VL: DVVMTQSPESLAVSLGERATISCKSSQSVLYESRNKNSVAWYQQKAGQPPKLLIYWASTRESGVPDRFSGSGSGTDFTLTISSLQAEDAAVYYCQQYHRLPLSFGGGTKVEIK

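The parent was found by panning a naive human phage display library on the peptide. AAYL50 was designed without a model: most single CDR substitutions and a random sample of double and triple ones. The assay is AlphaSeq: two haploid yeast populations carry antibody and antigen on their surface. The frequency of each diploid, read from paired DNA barcodes, reflects how well the two displayed proteins bind. Each replicate has its own calibration line, from reference interactions of the BCL2 family. There are three technical replicates.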

Positions count from residue 1 of the parent VL; L30T puts T in place of L. The read-out is the apparent dissociation constant on a log10 scale (nM): the lower, the stronger. Replicates are averaged; those with no signal do not enter the mean. "no signal" means that the variant was in the library but no mating with the target was seen in any replicate; the authors take this as a sign of poor binding, and no number exists.

| mean log10 Kd (nM) | replicates with signal | changes |
|---|---|---|
| no signal | 0/3 | L30T S33L A57W |
| 3.08 | 1/3 | V29F P101M |
| 0.92 | 3/3 | S28D L102I |
| 5.82 | 1/3 | E32C Q96K L102C |
| no signal | 0/3 | R34A S58C R99Q |
| 0.57 | 3/3 | S33E S62I |
| 4.13 | 1/3 | E32L S58W |
| no signal | 0/3 | S33P P101E L102D |
| 4.74 | 3/3 | E32G S38I S103I |
| 1.64 | 3/3 | Q27I S58G |
| 1.76 | 3/3 | S25Y W56M S58D |
| 1.60 | 3/3 | L30H R34N S58F |
| 2.86 | 3/3 | L30A S38T H98Q |
| 1.24 | 3/3 | K24A S58D E61W |
| 0.67 | 3/3 | S26Q A57G |
| no signal | 0/3 | L30R T59Q L100P |
| 1.49 | 3/3 | N35T E61L R99D |
| 1.82 | 3/3 | K24C W56T R99G |
| 3.65 | 1/3 | N37K W56Y P101E |
| no signal | 0/3 | A40I S58W P101D |
| no signal | 0/3 | S26D V39I Y97K |
| no signal | 0/3 | K24F Q27V H98K |
| 1.59 | 3/3 | R34V A40C E61C |
| 1.45 | 3/3 | L30W S33R Q96V |
| no signal | 0/3 | S28W E32L S33F |
| 2.53 | 1/3 | S28R S33I R99Y |
| no signal | 0/3 | S25T S58I L100A |
| 4.09 | 2/3 | S25C S28F L102C |
| 5.43 | 3/3 | Q95F R99K L100N |
| 4.95 | 2/3 | N35G N37V V39T |
| no signal | 0/3 | S38L T59F L100C |
| 5.09 | 1/3 | S26I A40E Y97D |
| no signal | 0/3 | S38F R60W S62G |
| 3.03 | 2/3 | S26W V29N S103C |
| 1.60 | 3/3 | K36V N37R Y97L |
| 1.47 | 3/3 | V29H L30C R34H |
| 3.32 | 1/3 | N37D A57D E61F |
| no signal | 0/3 | R34P A40V Q96R |
| -0.24 | 3/3 | S26L S28F W56N |
| 4.84 | 3/3 | S28L T59V E61D |
| no signal | 0/3 | S26A N35E A57Y |
| 4.67 | 2/3 | Q27N Y31F S58P |
| 2.40 | 3/3 | S26R Y31G |
| 0.52 | 3/3 | K24H Q95P Y97T |
| no signal | 0/3 | Q95A R99W |
| 5.79 | 2/3 | S25H R34L P101Q |
| 5.34 | 2/3 | N35I S38K S62G |
| no signal | 0/3 | S26P K36G Q95L |
| 1.82 | 3/3 | V29T E32N S58G |
| 3.76 | 1/3 | R34C L102T |
| no signal | 0/3 | E61V H98P S103N |
| 3.84 | 2/3 | S33E S38K S58Q |
| 3.22 | 1/3 | S25K S33K S58I |
| 1.19 | 3/3 | V29L Y31H S58W |
| 2.02 | 3/3 | R34D E61H Q96A |
| 2.54 | 3/3 | S28K E32M E61N |
| 2.17 | 3/3 | S25P S62P R99S |
| 3.00 | 3/3 | S33D E61K R99L |
| 0.30 | 3/3 | S26Q W56D T59Y |
| 5.13 | 1/3 | A40D E61R H98V |
| 4.28 | 3/3 | H98K R99G S103R |
| no signal | 0/3 | S25W S28E A40R |
| 3.83 | 3/3 | S28Q T59N Q96I |
| 0.15 | 3/3 | K24L Y31I W56G |
| 1.53 | 3/3 | S28K L102Y |
| no signal | 0/3 | S33R N37L |
| 4.71 | 2/3 | A57V S58V R60V |
| 3.42 | 1/3 | V39W Y97N S103K |
| no signal | 0/3 | Y31A E32W A40P |
| 3.91 | 2/3 | K36D S58F |
| 4.10 | 2/3 | K24W Q27F V39S |
| no signal | 0/3 | S25W K36N T59G |
| 0.92 | 3/3 | S33H T59I L100T |
| 1.48 | 3/3 | S33T N37E |
| no signal | 0/3 | N37V S62M R99E |

From the list, the first 10 with no signal in any replicate:

changes,mean log10 Kd (nM),replicates with signal
L30T S33L A57W,no signal,0/3
R34A S58C R99Q,no signal,0/3
S33P P101E L102D,no signal,0/3
L30R T59Q L100P,no signal,0/3
A40I S58W P101D,no signal,0/3
S26D V39I Y97K,no signal,0/3
K24F Q27V H98K,no signal,0/3
S28W E32L S33F,no signal,0/3
S25T S58I L100A,no signal,0/3
S38L T59F L100C,no signal,0/3

Parent in this assay: reference entry 0.65, copy in this library 1.68. Nonspecific signal, from three strains lacking the peptide, appeared in 18% of pairings of library AAYL50, centred on 4.19 (5% of these signals below 2.99); values are not corrected for it.

Reference: Engelhart et al. 2022, doi:10.1038/s41597-022-01779-4. File: FLAb, binding data.